# Assay results: patent publication US20190351069A1, “Coating of Nanoparticle Surfaces with Cyclopeptides for Improving Delivery of Agents Via the Oral Route” (Ruprecht-Karls-Universität Heidelberg, priority 2016, published 2019)
# Assay: in vitro
# Settings: simulated intestinal fluid
structure (smiles),measurement,value
CC[C@H](C)[C@H](NC(=O)[C@H](CCCCN)NC(=O)[C@@H](NC(=O)[C@H](CCC(N)=O)NC(=O)[C@@H](N)CCCNC(=N)N)[C@@H](C)CC)C(=O)N[C@@H](Cc1c[nH]c2ccccc12)C(=O)N[C@@H](Cc1ccccc1)C(=O)N[C@@H](CCC(N)=O)C(=O)N[C@@H](CC(N)=O)C(=O)N[C@@H](CCCNC(=N)N)C(=O)N[C@@H](CCCNC(=N)N)C(=O)N[C@@H](CCSC)C(=O)N[C@@H](CCCCN)C(=O)N[C@@H](Cc1c[nH]c2ccccc12)C(=O)N[C@@H](CCCCN)C(=O)N[C@@H](CCCCN)C(=O)N[C@@H](CS)C(=O)O [linear CPP],"remaining at 0.25 h, 0.5 mg/mL",5.79%
